The results in this text go back to PMC8448983 (European journal of medicinal chemistry, 2021).

As usually defined, the inhibition is the relative decrease from the control value, in per cent.

The target in assay [1] is human A2A adenosine receptor (Homo sapiens, UniProt P29274). Kind of assay: biochemical. To be noted: read-out: percent of inhibition, A2A AR.
Assay [2] deals with T1, human A2B adenosine receptor (Homo sapiens, UniProt P29275).
T1 sequence (P29275 1-332): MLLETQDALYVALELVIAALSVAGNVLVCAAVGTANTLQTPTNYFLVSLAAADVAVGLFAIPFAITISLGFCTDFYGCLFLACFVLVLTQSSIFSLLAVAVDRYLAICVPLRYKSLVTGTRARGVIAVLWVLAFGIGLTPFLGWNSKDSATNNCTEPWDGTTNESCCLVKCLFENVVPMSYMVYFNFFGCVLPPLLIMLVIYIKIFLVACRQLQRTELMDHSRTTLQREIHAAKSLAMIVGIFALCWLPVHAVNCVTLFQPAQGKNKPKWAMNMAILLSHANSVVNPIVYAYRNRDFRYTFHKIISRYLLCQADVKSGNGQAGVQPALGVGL
Kind of assay: biochemical. To be noted: read-out: percent of inhibition, A2B AR.

With `OC[C@H]1O[C@@H](n2cnc3c(NCCCc4ccccc4)nc(Cl)nc32)[C@H](O)[C@@H]1O` [Compound 24, 6-N-(3-phenylpropyl)-2-chloroadenosine], the inhibition at 10 µM in assay [1] came out at 27 ± 5%; in assay [2] it was 24 ± 1%.
